# B1: GST0 (GST without any additional peptide, negative control) (other, UniProt P08515 1-218, looked up)
# chain: MSPILGYWKIKGLVQPTRLLLEYLEEKYEEHLYERDEGDKWRNKKFELGLEFPNLPYYIDGDVKLTQSMAIIRYIADKHNMLGGCPKERAEISMLEGAVLDIRYGVSRIAYSKDFETLKVDFLSKLPEMLKMFEDRLCHKTYLNGDHVTHPDFMLYDALDVVLYMDPMCLDAFPKLVCFKKRIEAIPQIDKYLKSSKYIAWPLQGWQATFGGGDHPPK
# notes: Negative control in the pull-down; also called GSTO; control peptide (GST0)
# Molecular target: T1, amyloid β peptide […]
# T1 construct: domain: amyloid β peptide […]; also called Aβ […]; Aβ peptide ([…])
# Assay: GST pull-down on Glutathione-Sepharose, Western blot with anti-6E10
# Experimental: In vitro binding experiments were performed as described by Zugaza et al., (J. Biol. Chem. 2002 277(47):45377-45392). The Glutathione-Sepharose matrices loaded with 500 ng of the fusion proteins (GST-Rs, GST-Td, GST-Rw, GST-Rw) and 500 ng GST0 (as a control) were incubated with 100 pmol of the amyloid β peptide 1-42 in binding buffer (50 nM Tris-HCl pH 7.5, 150 mM NaCl). The proteins were eluted from the matrix by adding Laemmli buffer, and they were separated by SDS-PAGE and analyzed by Western blot, with the immunoreactive bands being visualized with an amyloid β peptide 1-42-specific (anti-6E10) antibody, followed by treatment with ECL (General Electric Healthcare).
binder,measurement,value
B1,binding result,no binding
